Data published in US20230279137A1 (EVOTEC INTERNATIONAL, published 2023).

Amino acid sequences for entries named in this document (tags omitted). Residues count along the entry.
UniProt P25942, 21-277: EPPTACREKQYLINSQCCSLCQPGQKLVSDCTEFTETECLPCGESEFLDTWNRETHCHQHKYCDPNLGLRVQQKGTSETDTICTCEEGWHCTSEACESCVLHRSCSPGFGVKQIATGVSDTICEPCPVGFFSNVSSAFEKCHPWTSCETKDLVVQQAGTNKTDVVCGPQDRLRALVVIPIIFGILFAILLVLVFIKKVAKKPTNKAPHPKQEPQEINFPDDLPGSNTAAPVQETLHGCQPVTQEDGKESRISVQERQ

What was measured:
[1] = biological target: T1, human type I IFN receptor on HEK-Blue IFN-α/β cells (human, UniProt P17181 28-557; P48551 27-515); assay: cell-based or functional assay
T1 sequence (looked up) 1: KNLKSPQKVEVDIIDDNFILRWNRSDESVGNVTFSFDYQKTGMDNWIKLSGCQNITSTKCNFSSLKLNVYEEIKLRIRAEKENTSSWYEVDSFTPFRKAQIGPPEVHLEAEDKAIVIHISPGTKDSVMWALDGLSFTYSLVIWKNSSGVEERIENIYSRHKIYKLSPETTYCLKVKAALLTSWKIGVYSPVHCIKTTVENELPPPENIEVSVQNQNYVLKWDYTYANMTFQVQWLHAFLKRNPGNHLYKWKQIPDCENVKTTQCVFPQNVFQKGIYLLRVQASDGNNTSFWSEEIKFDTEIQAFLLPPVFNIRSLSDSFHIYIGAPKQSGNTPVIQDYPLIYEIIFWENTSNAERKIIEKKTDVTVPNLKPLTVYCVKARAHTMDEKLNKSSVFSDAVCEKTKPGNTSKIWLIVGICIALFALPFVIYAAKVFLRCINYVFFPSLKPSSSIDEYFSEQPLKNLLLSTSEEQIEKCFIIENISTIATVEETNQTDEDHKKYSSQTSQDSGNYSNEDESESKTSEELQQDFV
T1 sequence (looked up) 2: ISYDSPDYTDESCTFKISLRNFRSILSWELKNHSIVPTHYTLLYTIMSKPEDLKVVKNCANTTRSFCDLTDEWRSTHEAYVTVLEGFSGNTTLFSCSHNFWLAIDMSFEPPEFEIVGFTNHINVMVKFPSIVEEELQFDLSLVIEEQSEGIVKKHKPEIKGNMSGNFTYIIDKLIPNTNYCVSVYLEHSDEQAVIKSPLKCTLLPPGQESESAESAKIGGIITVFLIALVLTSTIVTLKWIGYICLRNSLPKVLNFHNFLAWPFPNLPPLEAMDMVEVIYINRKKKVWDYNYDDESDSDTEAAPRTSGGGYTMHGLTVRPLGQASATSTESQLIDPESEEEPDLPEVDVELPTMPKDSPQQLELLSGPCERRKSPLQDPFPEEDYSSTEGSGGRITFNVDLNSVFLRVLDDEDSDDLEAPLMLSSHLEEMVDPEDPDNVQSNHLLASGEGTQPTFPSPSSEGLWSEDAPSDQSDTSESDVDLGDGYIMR

human CD40 = human CD40 (human, UniProt P25942); assay: cell-based or functional assay

IFNω EC50 (ng/mL), SEAP reporter in HEK-Blue hIFN-α/β cells [1]: 0.493 ng/mL
CD40 EC50 (ng/mL), NFκB-SEAP reporter in HEK-Blue CD40L cells (human CD40): 86.3 ng/mL
B1: IFA46 (antibody, human IgG2, kappa)
light: DIQMTQSPSSVSASVGDRVTITCRASQGIYSWLAWYQQKPGKAPNLLIYTASTLQSGVPSRFSGSGSGTDFTLTISSLQPEDFATYYCQQANIFPLTFGGGTKVEIKRTVAAPSVFIFPPSDEQLKSGTASVVCLLNNFYPREAKVQWKVDNALQSGNSQESVTEQDSKDSTYSLSSTLTLSKADYEKHKVYACEVTHQGLSSPVTKSFNRGECGGGGSGGGGSGGGGSGGGGS[about 150 residues omitted]
heavy: QVQLVQSGAEVKKPGASVKVSCKASGYTFTGYYMHWVRQAPGQGLEWMGWINPDSGGTNYAQKFQGRVTMTRDTSISTAYMELNRLRSDDTAVYYCARDQPLGYCTNGVCSYFDYWGQGTLVTVSSASTKGPSVFPLAPCSRSTSESTAALGCLVKDYFPEPVTVSWNSGALTSGVHTFPAVLQSSGLYSLSSVVTVPSSNFGTQTYTCNVDHKPSNTKVDKTVERKCCVECPPCPAPPVAGPSVFLFPPKPKDTLMISRTPEVTCVVVDVSHEDPEVQFNWYVDGVEVHNAKTKPREEQFNSTFRVVSVLTVVHQDWLNGKEYKCKVSNKGLPAPIEKTISKTKGQPREPQVYTLPPSREEMTKNQVSLTCLVKGFYPSDIAVEWESNGQPENNYKTTPPMLDSDGSFFLYSKLTVDKSRWQQGNVFSCSVMHEALHNHYTQKSLSLSPGK
